From BindingDB's records for doi:10.1021/jm9603274 (R. W. Johnson Pharmaceutical Research Institute, 1996)

Test: Inhibitory activity against thrombin induced platelet aggregation

IC50: 52 nM
SMILES: CC1CNc2c(cccc2S(=O)(=O)N[C@@H](CCCNC(=N)N)C(=O)N2CC[C@@H](C)C[C@@H]2C(=O)O)C1 (stereo partly specified)
